# Antibody variant affinities, Ab-14 light chain, assay 1

Reference: Engelhart et al. 2022, doi:10.1038/s41597-022-01779-4. File: FLAb, binding data.

Binding partner: SARS-CoV-2 spike HR2 peptide, sequence PDVDLGDISGINAS.

Ab-14 is the parent antibody, in scFv form: VH, then three GGGGS repeats, then VL. The heavy chain is unchanged in all variants.
VH: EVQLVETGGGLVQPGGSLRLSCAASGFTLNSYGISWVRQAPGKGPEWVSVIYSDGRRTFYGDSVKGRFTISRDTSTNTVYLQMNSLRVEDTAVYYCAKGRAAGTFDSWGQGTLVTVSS
VL: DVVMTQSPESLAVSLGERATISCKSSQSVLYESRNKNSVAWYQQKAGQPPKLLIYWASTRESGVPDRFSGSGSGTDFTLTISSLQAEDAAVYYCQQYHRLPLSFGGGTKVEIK

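The starting antibody came from a phage panning campaign against this peptide. AAYL50 was designed without a model: most single CDR substitutions and a random sample of double and triple ones. The scFvs were displayed on barcoded MATa yeast, the peptide on MATalpha yeast. The frequency of each diploid, read from paired DNA barcodes, reflects how well the two displayed proteins bind. Each replicate has its own calibration line, from reference interactions of the BCL2 family. Each pool was mated in three replicate cultures.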

Each variant is given by its three light chain CDRs, as the data file delimits them; those of the parent are KSSQSVLYESRNKNSVA, WASTRES, QQYHRLPLS. This list gathers variants with a substitution at N35 (VL, numbered from residue 1). Kd is apparent (estimated from mating counts) and averaged on the log scale over replicates with a signal. Smaller is tighter. "nd" marks a missing value. The strain was present, yet no cells mated with the target were sequenced in any replicate, which points to weak or no binding.

The variant KSSQSVLYESGDKNSVA / WASTRES / QQYHRLPLS gave 1.8 nM (3 of 3 replicates; controls 1 of 9).
The variant KSSQSVLYESRMWNSVA / CASTRES / QQYHRLPLS gave 1.2 µM (3 of 3 replicates; controls 5 of 9).
The variant KSSQSVLYESRGKNPVV / WASTRES / QQYHRLPLS gave 5.8 µM (2 of 3 replicates; controls 3 of 9).
The variant KSSQSVLYESRVKNSVA / WASTRES / QQYHRMQLS gave nd (0 of 3 replicates; controls 0 of 9).
The variant KSSQSVLYESRGKRSGA / WASTRES / QQYHRLPLS gave nd (0 of 3 replicates; controls 0 of 9).
The variant KSSQSVLYESRTKASVA / WASTRES / QQNHRLPLS gave 16 nM (3 of 3 replicates; controls 2 of 9).
The variant KSSQSVLYESRLKNSVA / WASTVES / QQYHRLPLS gave nd (0 of 3 replicates; controls 0 of 9).
The variant KYSQSVLYESRPKNSVA / WARTRES / QQYHRLPLS gave 150 nM (3 of 3 replicates; controls 2 of 9).
The variant KSSQSVLYESRAKNSVA / WASTCES / QQYHVLPLS gave 25 µM (1 of 3 replicates; controls 0 of 9).
The variant KSSQSVLYESRCTNSVA / WASTRES / QQYHRLPES gave nd (0 of 3 replicates; controls 0 of 9).
The variant KSSQHVLYMSRVKNSVA / WASTRES / QQYHRLPLS gave 980 nM (1 of 3 replicates; controls 3 of 9).
The variant KSSQSVLYESRVKNSPA / WASTRES / QQTHRLPLS gave nd (0 of 3 replicates; controls 0 of 9).
The variant KSSQSVTYESRFKNSVA / WASTRDS / QQYHRLPLS gave 18 nM (3 of 3 replicates; controls 2 of 9).
The variant KSSQFVLYEDRRKNSVA / WASTRES / QQYHRLPLS gave 24 nM (3 of 3 replicates; controls 1 of 9).
The variant KSSQSVAFESRSKNSVA / WASTRES / QQYHRLPLS gave 23 nM (3 of 3 replicates; controls 2 of 9).
The variant SSSQSVLYESRFKNSVA / WASTREN / QQYHRLPLS gave 140 nM (1 of 3 replicates; controls 0 of 9).
The variant KSSQSVLYESRTKNSCA / WASTRES / QQYHRLPLS gave 22 µM (1 of 3 replicates; controls 1 of 9).
The variant KSSQSVLYESRWKNSVA / WASVRES / QQYIRLPLS gave 390 nM (3 of 3 replicates; controls 0 of 9).
The variant KQSQSVLYESRHKNSVA / WASTRES / CQYHRLPLS gave 15 µM (2 of 3 replicates; controls 3 of 9).
The variant KSSQSVLYSSRGKNSVA / WASTRRS / QQYHRLPLS gave 14 µM (1 of 3 replicates; controls 3 of 9).
The variant KSSQSVLYESEHKNSVA / WALTRES / QQYHRLPLS gave 53 nM (3 of 3 replicates; controls 1 of 9).
The variant KPSQSVLYESRKKNSVA / WASTEES / QQYHRLPLS gave 18 µM (3 of 3 replicates; controls 3 of 9).
The variant KSSQSVLDESRVKNSVA / WASTIES / QQYHRLPLS gave 26 nM (3 of 3 replicates; controls 3 of 9).
The variant KSSQSVLYESRGVNSVA / WASTRES / QQCHRLPLS gave nd (0 of 3 replicates; controls 1 of 9).
The variant KKSQSVLYESRMKNPVA / WASTRES / QQYHRLPLS gave 36 µM (2 of 3 replicates; controls 2 of 9).
The variant KSMQSVLYESRAKNSVA / WASTRES / HQYHRLPLS gave nd (0 of 3 replicates; controls 1 of 9).
The variant KSSRSVLYESRRKNSVA / WASTREH / QQYHRLPLS gave nd (0 of 3 replicates; controls 3 of 9).
The variant KSSQSVMYESDDKNSVA / WASTRES / QQYHRLPLS gave 1.9 nM (3 of 3 replicates; controls 1 of 9).
The variant KSSQSVLYESRAKNSVC / WASTRES / QQYHRRPLS gave nd (0 of 3 replicates; controls 0 of 9).
The variant KSSQSWLYESRFKNSVA / WASTRES / QQYHRLPLS gave 38 nM (3 of 3 replicates; controls 1 of 9).
The variant KSSQSVLYESNYKNSVA / WASTRES / FQYHRLPLS gave 8.3 nM (3 of 3 replicates; controls 0 of 9).
The variant KSGQSVLYESRVKNSVA / WASTAES / QQYHRLPLS gave 210 µM (2 of 3 replicates; controls 4 of 9).
The variant KYSQSVLYESRAKNSVA / WASTRES / GQYHRLPLS gave 88 nM (3 of 3 replicates; controls 1 of 9).
The variant KSSQSVLAESRQKNSVA / WAFTRES / QQYHRLPLS gave 3.9 nM (3 of 3 replicates; controls 3 of 9).
The variant KSSQSVLYESKAKNSVA / WASTREF / QQYHRLPLS gave 58 µM (1 of 3 replicates; controls 1 of 9).
The variant KSVQSNLYESRLKNSVA / WASTRES / QQYHRLPLS gave 15 nM (3 of 3 replicates; controls 2 of 9).
The variant KSAQSVLYESREKNSVA / WYSTRES / QQYHRLPLS gave nd (0 of 3 replicates; controls 1 of 9).
The variant KGSQSVLYESRGKNSVA / WPSTRES / QQYHRLPLS gave nd (0 of 3 replicates; controls 2 of 9).
The variant KSSQSVKYESRAKNSVA / WASGRES / QQYHRLPLS gave 6.6 µM (1 of 3 replicates; controls 5 of 9).
The variant KSSQSVLYESRIKNSAA / WAFTRES / QQYHRLPLS gave 1.3 mM (1 of 3 replicates; controls 1 of 9).
The variant KSSQSVLYESRCKNSVA / WASTRES / QQYHTLVLS gave nd (0 of 3 replicates; controls 0 of 9).
The variant KSSQSVLYESREKNSVA / WASTREG / QQYHRLPRS gave nd (0 of 3 replicates; controls 0 of 9).
The variant KSSQSDLYESRPKNSVA / WWSTRES / QQYHRLPLS gave 1.9 µM (1 of 3 replicates; controls 1 of 9).
The variant KSSQSVLYESRFKNSVA / WASTRLS / QQYHRLPLS gave 6.7 nM (3 of 3 replicates; controls 0 of 9).
The variant KSSQSVLYESRMKNVVA / WASTRES / QQYHRLPYS gave nd (0 of 3 replicates; controls 1 of 9).
The variant ESSQSVLYESRRKNSVA / YASTRES / QQYHRLPLS gave 340 nM (3 of 3 replicates; controls 2 of 9).
The variant KSSQSVLYESRMKNSVA / WASTRES / QQYHRLPLS gave 75 nM (3 of 3 replicates; controls 1 of 9).

The opening 6 entries, copied out:

CDR-L1,CDR-L2,CDR-L3,Kd,detected,control signals
KSSQSVLYESGDKNSVA,WASTRES,QQYHRLPLS,1.8 nM,3 of 3,1 of 9
KSSQSVLYESRMWNSVA,CASTRES,QQYHRLPLS,1.2 µM,3 of 3,5 of 9
KSSQSVLYESRGKNPVV,WASTRES,QQYHRLPLS,5.8 µM,2 of 3,3 of 9
KSSQSVLYESRVKNSVA,WASTRES,QQYHRMQLS,nd,0 of 3,0 of 9
KSSQSVLYESRGKRSGA,WASTRES,QQYHRLPLS,nd,0 of 3,0 of 9
KSSQSVLYESRTKASVA,WASTRES,QQNHRLPLS,16 nM,3 of 3,2 of 9

Three control strains display no target. For library AAYL50, 18% of the pairings with them gave a signal, with a median of 15 µM and one signal in twenty below 970 nM, so weak values seen in few replicates may be background. For each scFv, signals with the empty controls are counted beside the result. In this assay the parent's reference entry averaged 4.4 nM; its copy inside this library read 48 nM.